In ChEMBL document CHEMBL5150021, “Identification of 5-(Aryl/Heteroaryl)amino-4-quinolones as Potent Membrane-Disrupting Agents to Combat Antibiotic-Resistant Gram-Positive Bacteria” (J Med Chem, 2022) one finds selectivity ratio data, which are given here for one compound.

The nature of the series: Therapeutic index, ratio of CC50 for Cytotoxicity against sheep erythrocytes to MIC for antibacterial activity against methicillin resistant Staphylococcus aureus FPR3757. The series is classed as toxicity. Put shortly:
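Ratio of erythrocyte CC50 to MRSA FPR3757 MIC. For hemolysis, 4% washed sheep erythrocytes were mixed 1:1 with twofold compound dilutions in PBS and incubated 1 h at 37 °C. Supernatant A540 was read after centrifugation and normalized between DMSO and Triton X-100 (100% lysis). Triplicates. Highest concentration tested: 32 μg/mL.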

`O=c1cc(C(F)(F)F)[nH]c2cc(C(F)(F)F)cc(Nc3ccc(C(F)(F)F)cn3)c12`: the selectivity ratio is over 500.
